Assay results taken from patent US9115102B2, “N-[2-hydroxycarbamoyl-2-(piperazinyl) ethyl] benzamide compounds, their preparation and their use as TACE inhibitors” (GALDERMA RESEARCH & DEVELOPMENT, priority 2009, dated 2015).
Like-named read-outs stand apart in the source and are kept apart here.

Amino acid sequences for entries named in this document (tags omitted). Residues count along the entry.
UniProt P78536, 215-824 limits assumed: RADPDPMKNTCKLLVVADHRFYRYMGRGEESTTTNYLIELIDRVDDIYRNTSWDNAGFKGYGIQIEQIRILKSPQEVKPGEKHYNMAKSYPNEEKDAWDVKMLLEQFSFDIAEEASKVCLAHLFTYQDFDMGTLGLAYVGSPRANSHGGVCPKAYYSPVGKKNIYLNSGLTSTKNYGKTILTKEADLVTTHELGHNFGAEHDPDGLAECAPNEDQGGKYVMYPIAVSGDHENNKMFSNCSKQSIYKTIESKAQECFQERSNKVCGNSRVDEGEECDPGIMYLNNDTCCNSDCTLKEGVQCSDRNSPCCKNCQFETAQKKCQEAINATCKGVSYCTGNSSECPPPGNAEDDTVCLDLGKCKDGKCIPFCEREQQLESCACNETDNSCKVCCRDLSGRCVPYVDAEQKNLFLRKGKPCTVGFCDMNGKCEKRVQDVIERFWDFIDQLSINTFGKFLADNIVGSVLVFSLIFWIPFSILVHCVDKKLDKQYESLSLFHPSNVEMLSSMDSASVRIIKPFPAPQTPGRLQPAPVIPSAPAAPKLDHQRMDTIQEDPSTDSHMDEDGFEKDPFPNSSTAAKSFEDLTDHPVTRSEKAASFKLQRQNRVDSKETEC

Target: TACE enzyme (Homo sapiens, UniProt P78536)
Test: Enzymatic test of TACE inhibition (fluorescent substrate)
Assay type: biochemical
[1] = enzymatic test, substrate 40 μM, read-out: IC50 - TACE
[2] = selectivity table, read-out: IC50 TACE

SMILES	IC50 (read-out: IC50 - TACE, enzymatic test, substrate 40 μM, listed as Ex24, dihydrochloride)	IC50 [1]	IC50 [2]
Cc1cc(COc2ccc(C(=O)NC[C@@H](C(=O)NO)N3CCN(S(C)(=O)=O)CC3)cc2)c2ccccc2n1.Cl.Cl [Example 24, N—[(S)-2-Hydroxycarbamoyl-2-(4-methane-sulphonylpiperazin-1-yl)ethyl]-4-(2-methylquinolin-4-ylmethoxy)benzamide dihydrochloride]	88 nM	–	–
Cc1cc(COc2ccc(C(=O)NC[C@@H](C(=O)NO)N3CCN(S(C)(=O)=O)CC3)cc2)c2ccccc2n1 [Example 14, N—[(S)-2-Hydroxycarbamoyl-2-(4-methane-sulphonylpiperazin-1-yl)ethyl]-4-(2-methylquinolin-4-ylmethoxy)benzamide]	–	35 nM	35 nM
O=C(NCC(C(=O)NO)N1CCN(Cc2ccccc2)CC1)c1ccc(OCc2c(C(F)(F)F)nn3ccccc23)cc1 (centres unmarked) [Example 27, N-[2-(4-Benzylpiperazin-1-yl)-2-hydroxycarbamoylethyl]-4-(2-trifluoromethylpyrazolo[1,5-a]pyridin-3-ylmethoxy)benzamide]	–	81 nM	81 nM
